Apparent affinities of Ab-14 variants for a coronavirus HR2 peptide

Binding partner: SARS-CoV-2 spike HR2 peptide, sequence PDVDLGDISGINAS.

Parent scFv Ab-14: VH joined to VL by a (GGGGS)3 linker. Changes lie in the heavy chain CDRs alone.
VH: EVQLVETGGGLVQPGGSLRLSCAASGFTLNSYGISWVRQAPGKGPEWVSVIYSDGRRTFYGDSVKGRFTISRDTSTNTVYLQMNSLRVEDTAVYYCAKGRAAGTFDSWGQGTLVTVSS
VL: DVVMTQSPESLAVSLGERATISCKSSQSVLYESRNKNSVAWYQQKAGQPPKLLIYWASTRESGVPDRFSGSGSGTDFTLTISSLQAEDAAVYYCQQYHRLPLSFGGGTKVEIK

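The starting antibody came from a phage panning campaign against this peptide. Designed CDR sequences, proposed from the first random library and measured here. Several design methods are mixed in this list. Affinity was read by AlphaSeq, a pooled yeast mating assay with surface-displayed partners. Mating (16 h, 30 °C) was followed by selection of diploids and sequencing of their barcodes. Scores were corrected for input abundance and mapped to Kd with protein pairs of known affinity run in the same pool. Mating was done six times.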

The parent's heavy chain CDRs are GFTLNSYGIS, VIYSDGRRTFYGDSVK, GRAAGTFDS; each variant's own CDRs replace them letter for letter. Variants here have more than six changes. Values are log10 of the apparent Kd in nM; lower means stronger binding. Averages over replicates are reported, and they cover detected replicates only. Where no diploid with the target was found in any replicate, the entry reads "nd": below detection, most likely a poor binder, though not proof of it. The authors averaged sequences with at least three values out of six and counted those with two or fewer as poor binders.

The variant GFDLESYGIS, VIYADGRRTAYADKVK, GVNAGTFDI showed 0.23 (6 of 6 replicates).
The variant GFDLEDYGIS, VIYADGRRTAYIDSVK, GEEAGTFDV showed -0.26 (6 of 6 replicates).
The variant GFALNEYGIS, VIYADGKRQVYANKVK, GNQTGTLDI showed 2.58 (1 of 6 replicates).
The variant GFNLDEYGIS, VIYADGRRTAYADSVK, NSNMSGMVT showed 1.93 (1 of 6 replicates).
The variant GFDLEEYGIS, VIYADGRRVSYAQNVK, GVYSGTHYV showed nd (0 of 6 replicates).
The variant GFDIEEYGIS, VIYADGMRSSYSQSVK, GLYSGNIYV showed nd (0 of 6 replicates).
The variant GFDLNEYGIS, VIYADGMRTAYADSVK, GNNAGTFVL showed nd (0 of 6 replicates).
The variant GFQLNEYGIS, VIYADGHRSEYADKVK, GGINSSFGV showed nd (0 of 6 replicates).
The variant GFNLDEYGIS, VIYADGMRTFYTDSVK, GETAGTFIN showed -0.97 (6 of 6 replicates).
The variant GFDLNEYGIS, VIYADGQRTYYADSVK, GEVAGTFDQ showed -0.43 (6 of 6 replicates).
The variant GFNLDEYGIS, VIYADGRRTFYADSVK, GSNAGTFDT showed -0.57 (6 of 6 replicates).
The variant GFDLNEYGIS, VIYADGIRTFYADSVK, GNLAGTFDV showed -0.56 (6 of 6 replicates).
The variant GFDLDEYGIS, VIYADGTRKYYADNVK, GDYHYVNST showed nd (0 of 6 replicates).
The variant GFDLEDYGIS, VIYADGRRTAYADSVK, GNVAGTFIS showed 0.43 (6 of 6 replicates).
The variant GFDLDEYGIS, VIYADGMRTAYADDVK, GETAGTFDL showed 0.61 (6 of 6 replicates).
The variant GFNLEEYGIS, VIYADGFRASYQDKVK, GQNGSVVLR showed 1.24 (1 of 6 replicates).
The variant GFDLNEYGVS, VIYADGMRSSYQDKVK, GSNGSLFDV showed nd (0 of 6 replicates).
The variant GFDLNEYGIS, VIYADGRRSFYADSVK, GQLAGTFDF showed -0.60 (6 of 6 replicates).
The variant GFKLNEYGIS, VIYADGQRKAYTDSFK, GTHAGMVFE showed 2.44 (1 of 6 replicates).
The variant GFNLEDYGIS, VIYADGRRTFYADSVK, GKVAGTFDV showed -0.48 (6 of 6 replicates).
The variant GFDLNEYGIS, VIYADGVRTSYSDSVK, GNVAGTFDV showed -0.34 (6 of 6 replicates).
The variant GFSFNEYGIS, VIYADGKRQAYANKVK, GGKDAAFDI showed 2.28 (1 of 6 replicates).
The variant GFDLNEYGIS, VIYADGMRTSYIDSVK, GENAGTFDV showed -0.33 (6 of 6 replicates).
The variant GFDLEDYGIS, VIYADGMRTAYADSVK, GNVAGTFDI showed -0.47 (6 of 6 replicates).
The variant GFNLNEYGIS, VIYADGRRTFYADSVK, GETAGSFDI showed -0.44 (6 of 6 replicates).
The variant GFDLNEYGIS, VIYADGVRTAYSDSVK, GEQAGTFDV showed 0.13 (6 of 6 replicates).
The variant GFELTEYGIS, VIYADGHRSFVTDTVK, GQQAGIFNV showed 1.32 (1 of 6 replicates).
The variant GFDLDEYGIS, VIYADGRRVAILESVK, GKIAGTLDA showed -0.30 (6 of 6 replicates).
The variant GFSIDEYGIS, VIYADGTRTFYTDNVK, GLIGMVCGL showed nd (0 of 6 replicates).
The variant GFDLDEYGIS, VIYADGQRTAYSDSVK, GENAGTFDI showed 0.09 (6 of 6 replicates).
The variant GFDLNEYGIS, VIYADGVRKAYADDVK, GNVAGTFDV showed -0.48 (6 of 6 replicates).
The variant GFDLNEYGIS, VIYADGRRTFYADSVK, GNQAGTFIQ showed 1.13 (6 of 6 replicates).
The variant GFDLNEYGIS, VIYADGSRTAYADSVK, GETAGTFDV showed -0.20 (6 of 6 replicates).
The variant GFDLNEYGIS, VIYADGMRTAYADSVK, GSVAGTFDI showed -0.47 (6 of 6 replicates).
The variant GFDLNEYGIS, VIYADGMRTAYVDSVK, GQVAGTFDL showed -1.83 (6 of 6 replicates).
The variant GFLIDEYGIS, VIYADGQRTAYTDDVK, GYVGGIGGI showed nd (0 of 6 replicates).
The variant GFDLNEYGIS, VIYADGKRTAYVDSVK, GENAGTFDI showed -0.52 (6 of 6 replicates).
The variant GFDLDEYGIS, VIYADGMRTFYADDVK, GNVAGTFDV showed -0.69 (6 of 6 replicates).
The variant GFDLNEYGIS, VIYADGMRTVYADSVK, GQNAGTFDI showed -0.83 (6 of 6 replicates).
The variant GFNLNEYGIS, VIYADGKRTFYSDSVK, GEAGGTFDV showed 0.16 (6 of 6 replicates).
The variant GFELSEYGIS, VIYADGHRSFVTQDVK, GQNGGAFNV showed nd (0 of 6 replicates).
The variant GEDLDEYGIS, VIYADGQRTAYDESVK, GTIAGSFFH showed nd (0 of 6 replicates).
The variant GADINEYGIS, VIYADGNRIAYQDQVK, GFNAGSFDI showed 4.50 (1 of 6 replicates).
The variant GFDLNEYGIS, VIYADGLRTSYDDSVK, GQVAGTFDQ showed 2.00 (1 of 6 replicates).
The variant GFDLNEYGIS, VIYADGRRTFYSDSVK, GETAGTFDE showed 0.39 (3 of 6 replicates).
The variant GDSLEEYGIS, VIYADGKRKAYKNKAK, GQTAGSFDV showed 1.62 (1 of 6 replicates).
The variant GFDLDQYGIS, VIYADGRRTAYANDVK, GKYAGSMLD showed nd (0 of 6 replicates).
The variant GDGLLEYGIS, VIYADGMRESYAENVK, GQTGGTFVL showed nd (0 of 6 replicates).

For reference, 6 entries of the list once more:

Variant GFDLEDYGIS, VIYADGRRTAYADSVK, GNVAGTFIS gave 0.43 (6 of 6 replicates).
Variant GFDLESYGIS, VIYADGRRTAYADKVK, GVNAGTFDI gave 0.23 (6 of 6 replicates).
Variant GFDLNEYGIS, VIYADGKRTAYVDSVK, GENAGTFDI gave -0.52 (6 of 6 replicates).
Variant GFNLDEYGIS, VIYADGMRTFYTDSVK, GETAGTFIN gave -0.97 (6 of 6 replicates).
Variant GFNLDEYGIS, VIYADGRRTFYADSVK, GSNAGTFDT gave -0.57 (6 of 6 replicates).
Variant GFDLNEYGIS, VIYADGRRSFYADSVK, GQLAGTFDF gave -0.60 (6 of 6 replicates).

Values of this round are not directly comparable with the first-round values of the same sequences. Of ten entries with the parent sequence, four were seen in most replicates (averages 0.34 to 2.37), three in one and three in none, so single entries are noisy. As a blank, each scFv also met three strains without target: over all heavy chain designs, 1% of these pairings were detected, typically at 2.08 and seldom below 0.84.

Data: MIT Lincoln Laboratory AlphaSeq set, Li et al. 2023, doi:10.1038/s41467-023-39022-2, as distributed in FLAb.